Results from ChEMBL document CHEMBL4017539, “Oral Delivery of Propofol with Methoxymethylphosphonic Acid as the Delivery Vehicle” (J Med Chem, 2017).

System: Mus musculus
Test: Toxicity in ICR mouse assessed as death at 200 mg equiv/kg parent drug administered via oral gavage relative to control
Conditions: in vivo

`CCCP(=O)(N[C@@H](C)C(=O)OCC)Oc1c(C(C)C)cccc1C(C)C` (stereo partly specified) gave a mortality of 0%.

Some compounds may have been tested in ways that are not shown here.
